Patent US10246486B2, “Macrocyclic inhibitors of flaviviridae viruses” (Gilead Sciences, Inc., priority 2012, dated 2019)

Chains of the proteins cited; added tags and fusions are not shown.
UniProt P62937, whole entry: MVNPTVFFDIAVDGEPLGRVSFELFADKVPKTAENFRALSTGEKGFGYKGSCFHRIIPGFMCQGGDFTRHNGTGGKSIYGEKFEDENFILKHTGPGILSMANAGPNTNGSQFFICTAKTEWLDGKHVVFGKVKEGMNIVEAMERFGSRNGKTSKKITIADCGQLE

Molecular target: cyclophilin A (Homo sapiens, UniProt P62937)

CC(C)[C@@H]1NC(=O)[C@@H](C)/C=C/c2ccc3ccc(nc3c2)[C@@H](C)OC(=O)[C@@H]2CCCN(N2)C(=O)[C@H](C)NC1=O
IC50: < 100 nM
